Biological target: Dihydroorotate dehydrogenase (quinone), mitochondrial (Homo sapiens, UniProt Q02127)
Assay type: ADME

Protein sequences, listed by entry. Tags and fused reporters are not part of them. Lines headed by an entry give the natural chain unless they say otherwise; changes in a name come on top.
UniProt Q02127: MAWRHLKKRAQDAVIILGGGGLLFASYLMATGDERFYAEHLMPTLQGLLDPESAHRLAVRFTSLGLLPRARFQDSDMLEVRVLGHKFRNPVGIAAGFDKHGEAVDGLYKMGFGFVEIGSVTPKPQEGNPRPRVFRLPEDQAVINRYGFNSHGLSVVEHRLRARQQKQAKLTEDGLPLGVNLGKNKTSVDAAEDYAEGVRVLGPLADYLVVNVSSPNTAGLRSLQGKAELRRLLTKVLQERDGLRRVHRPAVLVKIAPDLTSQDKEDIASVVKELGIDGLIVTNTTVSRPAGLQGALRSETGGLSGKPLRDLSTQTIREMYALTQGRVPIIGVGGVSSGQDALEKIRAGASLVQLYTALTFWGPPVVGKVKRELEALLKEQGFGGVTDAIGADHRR

Structure (SMILES): Cc1cc(Nc2ccc(S(F)(F)(F)(F)F)cc2)n2nc(C(F)(F)F)nc2n1
- IC50: > 100 µM
